Assay results taken from ChEMBL document CHEMBL1148593, “Matrix metalloproteinase target family landscape: a chemometrical approach to ligand selectivity based on protein binding site analysis” (J Med Chem, 2006).

Assays:
[1] = biological target: Collagenase 3 (Homo sapiens, UniProt P45452); assay: Binding affinity to MMP13
[2] = biological target: T1, Interstitial collagenase (Homo sapiens, UniProt P03956); assay: Binding affinity to MMP1
T1 sequence (P03956 whole entry): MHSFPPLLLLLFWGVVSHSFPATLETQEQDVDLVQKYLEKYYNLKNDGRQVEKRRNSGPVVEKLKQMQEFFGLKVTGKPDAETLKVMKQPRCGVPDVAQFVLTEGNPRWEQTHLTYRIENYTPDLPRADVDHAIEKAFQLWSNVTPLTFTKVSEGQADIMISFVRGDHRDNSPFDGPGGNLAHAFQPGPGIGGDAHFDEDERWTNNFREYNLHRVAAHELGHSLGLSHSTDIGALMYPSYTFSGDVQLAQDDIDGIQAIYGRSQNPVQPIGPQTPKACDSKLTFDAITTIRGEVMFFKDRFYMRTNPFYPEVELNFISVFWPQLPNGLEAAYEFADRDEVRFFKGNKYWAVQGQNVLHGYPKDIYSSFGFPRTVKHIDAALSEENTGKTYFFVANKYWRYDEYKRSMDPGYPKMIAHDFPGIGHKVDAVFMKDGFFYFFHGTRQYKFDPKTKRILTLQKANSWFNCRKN

SMILES | IC50 [1] | Ki [2]
O=C(O)C1Cc2ccccc2CN1S(=O)(=O)CCc1ccc(-c2ccc(Cl)cc2)cc1 (configuration not stated) | 0.02 µM | –
CNC(=O)C1CCCCNC(=O)CCC(C(=O)O)NC(CCc2ccccc2)C(=O)N1 (configuration not stated) | – | 2.5 µM
